Values of other authors in paper PMC3664191 (Bioorganic & medicinal chemistry letters, 2013).
Read-outs that look alike come from different tables or passages of the source.

Chains of the proteins cited; added tags and fusions are not shown. Lines headed by an entry give the natural chain unless they say otherwise; changes in a name come on top.
UniProt P49759: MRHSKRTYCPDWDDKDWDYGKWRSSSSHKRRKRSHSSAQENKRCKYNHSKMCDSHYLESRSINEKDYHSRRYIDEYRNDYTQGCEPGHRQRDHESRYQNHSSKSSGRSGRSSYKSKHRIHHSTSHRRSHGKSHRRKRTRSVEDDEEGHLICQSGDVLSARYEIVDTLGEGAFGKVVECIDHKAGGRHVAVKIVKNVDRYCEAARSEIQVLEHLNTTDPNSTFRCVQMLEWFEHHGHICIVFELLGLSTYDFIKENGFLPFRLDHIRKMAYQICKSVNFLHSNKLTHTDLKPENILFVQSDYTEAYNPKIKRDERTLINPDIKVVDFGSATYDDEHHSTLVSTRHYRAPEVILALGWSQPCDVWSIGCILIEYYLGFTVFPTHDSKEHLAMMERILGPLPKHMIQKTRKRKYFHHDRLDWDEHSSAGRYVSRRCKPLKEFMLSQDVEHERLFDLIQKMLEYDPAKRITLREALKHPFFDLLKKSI
UniProt P49761: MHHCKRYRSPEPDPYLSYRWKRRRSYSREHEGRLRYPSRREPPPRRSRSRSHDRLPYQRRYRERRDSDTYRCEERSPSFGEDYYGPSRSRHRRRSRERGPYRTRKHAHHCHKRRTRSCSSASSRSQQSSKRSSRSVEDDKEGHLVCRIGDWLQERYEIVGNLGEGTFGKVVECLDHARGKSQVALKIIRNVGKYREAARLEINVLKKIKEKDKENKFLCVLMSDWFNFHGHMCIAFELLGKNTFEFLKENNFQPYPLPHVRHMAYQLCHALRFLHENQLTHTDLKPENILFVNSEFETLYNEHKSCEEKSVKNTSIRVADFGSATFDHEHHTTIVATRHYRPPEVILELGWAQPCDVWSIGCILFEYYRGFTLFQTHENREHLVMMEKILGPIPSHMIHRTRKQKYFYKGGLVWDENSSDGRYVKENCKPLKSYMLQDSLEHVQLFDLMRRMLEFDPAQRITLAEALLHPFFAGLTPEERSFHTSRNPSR
UniProt Q9HAZ1, whole entry, species assumed: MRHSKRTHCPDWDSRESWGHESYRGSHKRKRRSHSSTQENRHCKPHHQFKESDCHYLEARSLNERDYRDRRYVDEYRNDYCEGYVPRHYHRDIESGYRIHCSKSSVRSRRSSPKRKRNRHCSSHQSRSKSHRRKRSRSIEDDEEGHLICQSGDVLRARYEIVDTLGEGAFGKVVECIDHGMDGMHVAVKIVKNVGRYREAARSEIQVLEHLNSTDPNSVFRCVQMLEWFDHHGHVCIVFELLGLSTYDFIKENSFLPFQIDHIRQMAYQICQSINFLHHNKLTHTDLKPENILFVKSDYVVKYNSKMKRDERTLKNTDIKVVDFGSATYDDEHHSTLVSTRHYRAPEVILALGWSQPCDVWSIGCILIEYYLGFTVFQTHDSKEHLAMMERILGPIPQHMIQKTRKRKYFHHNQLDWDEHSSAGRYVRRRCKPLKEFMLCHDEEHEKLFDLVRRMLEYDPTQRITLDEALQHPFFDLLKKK

Legend:
[1] = biological target: Clk1 (Homo sapiens, UniProt P49759); settings: read-out: Clk1 IC50; cited from earlier work
[2] = biological target: Clk3 (Homo sapiens, UniProt P49761); settings: read-out: Clk3 IC50; cited from earlier work
[3] = biological target: Clk4 (Homo sapiens, UniProt Q9HAZ1); settings: read-out: Clk4 IC50, cited from earlier work

Structure (SMILES) | IC50 [1] | IC50 [2] | IC50 ([3]; ref 15) | IC50 ([3]; ref 39)
O=C1NC(Nc2ccccc2)=N/C1=C\c1ccc2c(c1)OCO2 [Leucettine L41] | 15 nM | – | – | –
CCN1/C(=C/C(C)=O)Sc2ccc(OC)cc21 [TG003] | – | 3000 nM | 15 nM | 30 nM
